Values quoted from earlier work, collected in publication PMC10411393 (Journal of medicinal chemistry, 2022).

Chains of the proteins cited; added tags and fusions are not shown. Residues count along the entry.
UniProt Q71F23, whole entry, looked up, tested part not stated: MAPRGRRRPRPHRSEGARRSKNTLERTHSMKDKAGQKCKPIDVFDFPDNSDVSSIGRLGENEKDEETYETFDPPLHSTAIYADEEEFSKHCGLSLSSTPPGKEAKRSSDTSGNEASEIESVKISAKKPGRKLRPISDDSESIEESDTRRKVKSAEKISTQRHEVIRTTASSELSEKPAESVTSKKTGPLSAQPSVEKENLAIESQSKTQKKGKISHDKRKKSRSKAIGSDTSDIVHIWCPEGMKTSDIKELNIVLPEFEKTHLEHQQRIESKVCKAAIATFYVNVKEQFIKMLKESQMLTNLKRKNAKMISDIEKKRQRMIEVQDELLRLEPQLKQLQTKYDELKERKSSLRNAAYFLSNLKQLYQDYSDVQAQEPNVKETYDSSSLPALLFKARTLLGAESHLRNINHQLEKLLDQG
UniProt P53350, 371-603: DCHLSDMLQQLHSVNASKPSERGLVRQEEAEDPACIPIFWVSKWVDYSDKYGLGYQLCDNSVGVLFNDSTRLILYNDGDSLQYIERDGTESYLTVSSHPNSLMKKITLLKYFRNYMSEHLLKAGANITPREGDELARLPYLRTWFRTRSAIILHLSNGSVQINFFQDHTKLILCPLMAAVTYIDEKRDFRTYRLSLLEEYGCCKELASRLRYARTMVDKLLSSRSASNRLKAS

Molecular target: PBIP1 phosphopeptide PLHSpT (Homo sapiens) (UniProt Q71F23)
Settings: cited from earlier work

In the case of Plk1 PBD (from UniProt P53350), the Kd is given as 450 nM.
